Results taken from PubChem BioAssay AID920 (The Scripps Research Institute Molecular Screening Center, 2007).
Only a part is listed here, and it is no random draw. Calls of active or inactive are those of the source.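 Rule for the calls: active = inhibition above a set limit, the mean inhibition across all tested compounds plus 3 SD (cut at about 34% in these data); inactive = the rest.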

Assay: blockers of IFN-gamma driven STAT1 reporter – cell-based, HTS, luciferase reporter, primary screen (AID 920);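 note: 0% = IFN-gamma with DMSO and 100% = IFN-gamma with 300 µM nifuroxazide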
Conditions: NIH 3T3 STAT1-luciferase reporter, luminescence, at 5.5 µM, hits give high values

Structure (SMILES)	inhibition
O=[N+]([O-])c1cc([N+](=O)[O-])c(CCNc2ccccc2)c([N+](=O)[O-])c1	inactive: 11.9%
CCc1nc2c(n1)c1c(non1O)c1c2no[n+]1[O-]	inactive: 7.01%
Cc1ccc(NP(=O)(Oc2ccccc2)Oc2ccccc2)nc1	inactive: -6.31%
CC(=O)N1C2C3N(C(C)=O)C1C1N(C(C)=O)C(C(N1C(C)=O)N3C(C)=O)N2C(C)=O	inactive: 7.34%
O=[N+]([O-])c1cccc2n[nH]nc12	inactive: 1.82%
COc1ccc(C2=NCC(CBr)S2)cc1 (centres undefined)	inactive: -6.23%
CC1CCN(C(=O)Oc2c(Cl)cc(Cl)c3cccnc23)CC1	inactive: 16.1%
CN(C)C(=O)OCCc1n(C)cc[n+]1C	inactive: 0.78%
CC(C)=N/N=C(\N)N[N+](=O)[O-]	inactive: 7.02%
CCN(/C(=N/P(=O)(N1CCOCC1)N1CCOCC1)N1CCOCC1)c1ccc(OC)cc1	inactive: 2.87%
O=[N+]([O-])c1ncn(CCn2ncnc2[N+](=O)[O-])n1	inactive: 7.39%
Cc1cc(SC(NC(=O)c2ccc(F)cc2)C(Cl)(Cl)Cl)ncn1 (centres undefined)	inactive: 3.45%
CCOP(=O)(Nc1ccccc1)OCC	inactive: -2.21%
CCN(N=Nc1nonc1N)c1nonc1N	inactive: 7.45%
CN1CCCC(OC(=O)C(c2ccccc2)c2ccccc2)C1 (centres undefined)	inactive: -7.29%
Clc1ccc(Cl)c(NC2=NCC(CBr)S2)c1 (centres undefined)	inactive: -5.44%
COc1ccccc1OP(=O)(Nc1ccc(C)cn1)Oc1ccccc1OC	inactive: -0.01%
Cc1ccc(N/C(=N/P(=O)(N2CCOCC2)N2CCOCC2)N2CCOCC2)cc1	inactive: -2.95%
NC(=O)c1cc([N+](=O)[O-])cc([N+](=O)[O-])c1N	inactive: 0.99%
O=C(NC(Sc1ccncn1)C(Cl)(Cl)Cl)c1ccccc1 (centres undefined)	inactive: -1.82%
Cc1c2non([O-])c-2c(C)[n+](=O)[n+]1[O-]	inactive: 10.3%
Oc1ccccc1CNc1ccccn1	inactive: -3.37%
CC(C)CC(=O)NC(Sc1ccc(Cl)cc1)C(Cl)(Cl)Cl (centres undefined)	inactive: -9.53%
CC(C)(C)C(=O)NC(Sc1ccccc1)C(Cl)(Cl)Cl (centres undefined)	inactive: 8.77%
CCOc1ccc(C2=NCC(CBr)S2)cc1 (centres undefined)	inactive: -2.96%
O=P1(Nc2nc3ccc(Cl)cc3s2)COc2ccccc2O1 (centres undefined)	inactive: -6.23%
CC(=O)Nc1ccc(Oc2c([N+](=O)[O-])cc([N+](=O)[O-])cc2[N+](=O)[O-])cc1	inactive: 3.73%

Structure (SMILES)	inhibition
CCOC(=O)NC(Sc1ccccc1)C(Cl)(Cl)Cl (centres undefined)	inactive: 14.1%
c1ccc(-c2nn[nH]n2)c(-c2nn[nH]n2)c1	inactive: -2.02%
O=C(NC1CCS(=O)(=O)C1)NP(=S)(Oc1ccccc1)Oc1ccccc1 (centres undefined)	inactive: -2.33%
CCNC(=S)/N=C(\N)N[N+](=O)[O-]	inactive: -0.24%
O=c1c2cc([N+](=O)[O-])ccc2[nH]c2c([N+](=O)[O-])cc([N+](=O)[O-])cc12	inactive: 16.8%
CCC(=O)N1C2C3N(C(=O)CC)C1C1N(C(=O)CC)C(C(N1C(=O)CC)N3C(=O)CC)N2C(=O)CC	inactive: -0.17%
CC(=O)NC(SC(=S)N(CC(C)C)CC(C)C)C(Cl)(Cl)Cl (centres undefined)	inactive: 0.73%
Cc1ccc(OP(=O)(Nc2ccccn2)Oc2ccc(C)cc2)cc1	inactive: -3.68%
COC(=O)c1cc2c(s1)N=C(c1ccccc1)N(C)P2(=O)N1CCOCC1 (centres undefined)	inactive: 3.73%
O=P(Nc1ccccn1)(c1ccc(Br)cc1)c1ccc(Br)cc1	inactive: 7.73%
O=C(OC1CN2CCC1CC2)c1cccc(Cl)c1 (centres undefined)	inactive: -8.49%
C(Cc1nn[nH]n1)Cc1nn[nH]n1	inactive: -4.42%
CC(=O)NC(SC(=S)N(C)C)C(Cl)(Cl)Cl (centres undefined)	inactive: -5.07%
c1nnnn1CCn1cnnn1	inactive: 0.98%
O=P(Nc1nccs1)(c1ccccc1)c1ccccc1	inactive: -1.8%
CC(C)C(=O)NC(Sc1ccccc1)C(Cl)(Cl)Cl (centres undefined)	inactive: -3.58%
Clc1n[nH]nc1-c1nn[nH][15n]1	inactive: -1.69%
O=P1(Nc2ccccn2)COc2ccccc2OC1	inactive: -0.82%
CC(C)/C=N\N=C(\N)N[N+](=O)[O-]	inactive: -2.95%
CC1(CBr)Cn2c(nc3ccccc3c2=O)S1 (centres undefined)	inactive: -2.65%
CN(C)C1(CNC(=O)c2ccc(S(C)(=O)=O)cc2)CCCCC1	inactive: -6.83%
CC1CCC(C(C)C)C(OP(=O)(Nc2ccccn2)c2ccccc2)C1 (centres undefined)	inactive: -1.67%
Cc1nn(-c2ccccc2)c2c1P(=O)(N1CCOCC1)N(C)C(c1ccccc1)=N2 (centres undefined)	inactive: 4.51%
Cc1ccc(OCC(=O)OC2CN3CCC2CC3)cc1 (centres undefined)	inactive: 7.68%
O=P1(Nc2ccc(Br)cn2)COc2ccccc2OC1	inactive: 3.88%
O=P1(Nc2ncccn2)COc2ccccc2OC1	inactive: -4.33%
O=P(Nc1nccs1)(Oc1ccccc1)Oc1ccccc1	inactive: 6.8%

Structure (SMILES)	inhibition
O=P(Nc1nccs1)(c1ccccc1)c1nc2ccccc2s1 (centres undefined)	inactive: 6.37%
CCOP1(=S)c2c(C)nn(CCC#N)c2N=C(c2ccccc2F)N1C (centres undefined)	inactive: -2.99%
CCOP1(=S)c2c(C)nn(CCC#N)c2N=C(c2ccc(F)cc2)N1C (centres undefined)	inactive: 5.41%
O=[N+]([O-])c1ccc2c(c1)nnn2O	inactive: 6.42%
Cc1cccc(OCC(=O)OC2CN3CCC2CC3)c1 (centres undefined)	inactive: -4.56%
COc1cc(C(=O)NCC2(N3CCOCC3)CCCCC2)cc(Cl)c1OC(C)C	inactive: 0.62%
CCOP(=O)(Nc1cccc2ccccc12)OCC	inactive: 4.65%
COc1cc(C2NCCC3(OCCO3)C2(C)C)cc(OC)c1OC (centres undefined)	inactive: 5.7%
Cc1ccc(NCCc2c([N+](=O)[O-])cc([N+](=O)[O-])cc2[N+](=O)[O-])cc1	inactive: 9.92%
COc1ccc2nc(NP(=O)(c3ccccc3)c3ccccc3)sc2c1	inactive: 2.4%
Cc1c2c(nc3ccccc13)SC(C(Cl)Cl)C2 (centres undefined)	inactive: -10.2%
Cc1cc(=O)[nH]c(N[N+](=O)[O-])n1	inactive: 2.49%
O=C(OC1CN2CCC1CC2)C12CC3CC(CC(C3)C1)C2 (centres undefined)	inactive: 5.82%
COc1ccc(N/C(=N/P(=O)(N2CCOCC2)N2CCOCC2)N2CCOCC2)cc1	inactive: -3.54%
Cc1ccc2nc3c(c(C)c2c1)CC(C(Cl)Cl)S3 (centres undefined)	inactive: -24.1%
O=[N+]([O-])c1cc([N+](=O)[O-])c(-c2ccn[nH]2)s1	inactive: 12.9%
CC(C)NC(=O)NP(=O)(Oc1ccccc1)Oc1ccccc1	inactive: -6.53%
CCN(CC)C(=S)SC(NC=O)C(Cl)(Cl)Cl (centres undefined)	inactive: 5.84%
ClCCSc1nnc(-c2cccnc2)o1	inactive: -5.4%
Cc1cc(SC(NC(=O)c2ccccc2)C(Cl)(Cl)Cl)nc(C(C)C)n1 (centres undefined)	inactive: 0%
Cc1cc(SC(NC=O)C(Cl)(Cl)Cl)ncn1 (centres undefined)	inactive: 2.49%
O=P(Nc1ccccn1)(c1cccc2ccccc12)c1cccc2ccccc12	inactive: -8.44%
O=C(COc1ccccc1)OC1CN2CCC1CC2 (centres undefined)	inactive: 7.01%
COP1(=S)c2c(C)nn(CCC#N)c2N=C(c2ccc(F)cc2)N1C (centres undefined)	inactive: 0.16%
CCC(C)N(CC(C)C)C(=S)SC(NC(C)=O)C(Cl)(Cl)Cl (centres undefined)	inactive: -4.43%
